This is an account of results in patent US20200199647A1, “ASSAY FOR SCREENING MODULATORS OF HOLOPHOSPHATASE ACTIVITY” (UNITED KINGDOM RESEARCH AND INNOVATION, priority 2017, published 2020).

Sequences of proteins named here, by UniProt entry; tags and fusion partners are left off. A change or cut given only in a name is not applied to a line headed by its entry. A line that says so, or that is headed by a name, gives the form on record, which may keep a tag or linker. Residues count along the entry.
UniProt O75807, 325-636, stated change not applied: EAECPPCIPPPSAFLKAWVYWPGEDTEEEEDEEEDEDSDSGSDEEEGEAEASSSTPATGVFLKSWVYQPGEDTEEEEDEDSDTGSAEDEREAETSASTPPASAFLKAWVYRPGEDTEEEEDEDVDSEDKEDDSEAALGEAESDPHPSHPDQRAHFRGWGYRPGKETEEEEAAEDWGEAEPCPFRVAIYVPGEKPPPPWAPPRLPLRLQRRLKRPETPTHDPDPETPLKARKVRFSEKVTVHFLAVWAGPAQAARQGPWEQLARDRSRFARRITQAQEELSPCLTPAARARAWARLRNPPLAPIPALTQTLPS
R15A^N/R15B^C (Homo sapiens, UniProt O75807+Q5SWA1), UniProt O75807+Q5SWA1, fused, stated change not applied: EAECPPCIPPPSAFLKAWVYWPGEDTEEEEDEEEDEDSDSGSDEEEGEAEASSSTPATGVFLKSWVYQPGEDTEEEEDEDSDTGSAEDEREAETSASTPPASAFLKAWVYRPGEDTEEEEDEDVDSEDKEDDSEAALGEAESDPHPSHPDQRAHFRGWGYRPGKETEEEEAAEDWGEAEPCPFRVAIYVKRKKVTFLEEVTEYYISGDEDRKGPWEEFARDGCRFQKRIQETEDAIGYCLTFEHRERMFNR
UniProt P62136, 7-330 partner: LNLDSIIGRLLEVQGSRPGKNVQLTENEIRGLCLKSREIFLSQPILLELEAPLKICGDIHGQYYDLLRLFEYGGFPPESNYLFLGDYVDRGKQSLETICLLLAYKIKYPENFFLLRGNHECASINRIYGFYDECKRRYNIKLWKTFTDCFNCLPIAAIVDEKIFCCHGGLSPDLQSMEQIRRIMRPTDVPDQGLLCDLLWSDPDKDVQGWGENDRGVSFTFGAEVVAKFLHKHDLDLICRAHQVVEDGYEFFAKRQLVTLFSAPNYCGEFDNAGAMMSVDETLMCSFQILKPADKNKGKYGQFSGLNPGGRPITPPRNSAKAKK

Molecules are shown by their SMILES.

The target of assay [1] is T1, R15A^N/R15B^C (Homo sapiens, UniProt O75807+Q5SWA1).
T1 construct: PPP1R15A amino acids 325-636 (R15A), 325-512 (R15A^N), and 513-636 (R15A^C); PPP1R15B amino acids 340-698 (R15B), 340-635 (R15B^N), and 636-698 (R15B^C); R15B^C (PPP1R15B amino acids 636-698); His6 (C); made in house; host or cells: E. coli BL21 pLysS (chimera, eIF2α); E. coli BL21/pGro7 (PP1c)
The assay is described as follows: Dephosphorylation of P-eIF2α by chimeric holophosphatase PP1c-R15A^N/R15B^C. To be noted: PP1c 10 nM, compounds 100 μM, 30° C., 16 h. Format: biochemical. An excerpt: (§1) The cDNA encoding human PPP1R15A, PPP1R15B and PPP1R3A regulatory subunits were cloned into a pMAL-c5×-His vector, encoding for an amino-terminal MBP-tag and a carboxy-terminal His6-tag. […] R15A^N/R15B^C Chimeras were obtained by swapping the amino-terminal regions (R15^N) of R15A and R15B proteins described above, whilst maintaining the same carboxy-terminal regions (R15^C), to produce R15B^N/R15A^C and […] chimeras respectively, using In-Fusion cloning (Takara). All regulatory subunits were expressed in BL21 pLysS cells in Luria broth (LB) at 30° C. overnight. […] R15 proteins were stored at −80° C. and used within one month.
(§2) PP1c was diluted to the appropriate concentration (as indicated in the figure legends) in dephosphorylation buffer immediately prior to use. Dephosphorylation reactions were carried out by pre-incubating diluted PP1c in the presence or absence of regulatory subunits (either […]), and/or compounds (all at 100 μM, except for Salubrinal which was used at 30 μM), for 15′ at RT. All compounds were diluted in DMSO, and DMSO vehicle was used in all control experiments.
(§3) The reaction was initiated by the addition of 1 μM P-eIF2α or ^33P Phosphorylase a substrates and then incubated at 30° C. for 16 h with shaking at 350 rpm. Reactions were stopped by addition of 4× Laemmli sample buffer. eIF2α samples were analyzed by immunoblotting or Phos-tag gels. […]

Assay [2] addresses T2, R15A-PP1c (Homo sapiens, UniProt O75807).
T2 construct: PPP1R15A amino acids 325-636 (R15A); His6 (C); made in house; host or cells: E. coli BL21 pLysS (R15A, eIF2α); E. coli BL21/pGro7 (PP1c)
The assay is described as follows: In vitro dephosphorylation of P-eIF2α by recombinant R15A-PP1c holophosphatase (10 nM PP1c). The following applies: PP1c 10 nM, 1 μM P-eIF2α, compounds 100 μM, 30° C., 16 h. Type of assay: biochemical. The procedure: as §2
(§4) The reaction was initiated by the addition of 1 μM P-eIF2α or ^33P Phosphorylase a substrates and then incubated at 30° C. for 16 h with shaking at 350 rpm. Reactions were stopped by addition of 4× Laemmli sample buffer. eIF2α samples were analyzed by immunoblotting or Phos-tag gels. […] Samples in FIG. 8 and FIG. 16 were run on a 15% SuperSep Phos-tag acrylamide gel (Alpha Laboratories) and visualized by staining with InstantBlue Protein Stain.

Assay [3] has as its system Charcot-Marie-Tooth 1B (CMT-1B) and a SOD1 form of amyotrophic lateral sclerosis (ALS). To be noted: mice, CMT-1B and SOD1 ALS; cited from earlier work.
In assay [4] the target is T3, R15A (Homo sapiens, UniProt O75807).
T3 construct: PPP1R15A amino acids 325-636 (R15A); His6 (C); made in house; host or cells: E. coli BL21 pLysS
The assay is described as follows: Binding of R15A to biotinylated compounds on Streptavidin beads and elution. The procedure:
Purified R15A protein was diluted to 1 μM in IP buffer (50 mM Tris [pH 7.4], 150 mM NaCl, 0.1% Tween20, 10% glycerol). 1 μM R15A, in 100 μl volume, was pre-cleared with 25 μl of Pierce Streptavidin Magnetic Beads (ThermoFisher) for 1 h at 4° C. with rotation at 20 rpm. The supernatants were collected and incubated with 0.5 mM biotinylated Guanabenz, Sephin1 or biotin control plus 25 μl of pre-equilibrated Pierce Streptavidin Magnetic Beads. Samples were incubated for 3 h at 4° C. with rotation at 20 rpm. The supernatant was removed, and samples were thoroughly washed and transferred to a fresh Eppendorf. The beads were washed thoroughly with 5×1 ml interaction buffer, with 30 min incubation each time, and then resuspended with 50 μl of 4% SDS Laemmli sample buffer. Samples were run on 4-12% NuPAGE Bis-Tris gels (Life Technologies), and analysed by immunoblotting using α-MBP HRP (E8038) (NEB) (to reveal R15A). Elution experiments were performed on beads containing R15A bound to biotinylated-Guanabenz or biotinylated-Sephin1, by adding 100 μl of interaction buffer containing 2 mM Guanabenz or Sephin1, respectively, or DMSO vehicle control. Samples were incubated for 10 min at 4° C. with 20 rpm rotation. […] 10 μl sample was run on 4-12% NuPAGE Bis-Tris gel (Life Technologies), and analysed by immunoblotting using α-MBP HRP (E8038) (NEB) (to reveal R15A).

In assay [5] the target is T4, R15B (Homo sapiens, UniProt Q5SWA1).
T4 construct: PPP1R15B amino acids 340-698 (R15B); His6 (C); made in house; host or cells: E. coli BL21 pLysS
T4 sequence (Q5SWA1 340-698): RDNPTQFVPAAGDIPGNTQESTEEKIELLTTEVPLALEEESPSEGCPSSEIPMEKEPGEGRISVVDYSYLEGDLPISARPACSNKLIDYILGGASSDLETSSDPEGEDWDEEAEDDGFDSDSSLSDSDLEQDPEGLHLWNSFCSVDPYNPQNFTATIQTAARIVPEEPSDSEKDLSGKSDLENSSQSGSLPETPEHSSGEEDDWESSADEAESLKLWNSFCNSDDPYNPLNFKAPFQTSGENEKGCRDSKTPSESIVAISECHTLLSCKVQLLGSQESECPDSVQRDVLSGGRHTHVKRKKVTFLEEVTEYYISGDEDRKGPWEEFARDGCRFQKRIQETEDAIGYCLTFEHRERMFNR
As to the kind of experiment: Pull-down: binding of P-eIF2α to MBP-tagged R15B on amylose beads. The following applies: 200 μM compound, 200 nM MBP-R15B, 1 μM P-eIF2α, 10 min 4° C. The procedure: (§5) Purified MBP-tagged regulatory subunits (200 nM), P-eIF2α (1 μM), PP1c ([…]), and 200 μM compounds, or DMSO vehicle, were added as appropriate to 20 μl amylose magnetic bead, pre-equilibrated with interaction buffer (50 mM Tris (pH 7.4), 200 mM NaCl, 0.05% Tween20) in 200 μl volume. All protein dilutions were carried out in interaction buffer. 5% input sample was removed, and added to 4× Laemmli sample buffer for later analysis. The beads were incubated for 10′ at 4° C. The supernatant was removed, and the beads were washed thoroughly with interaction buffer and then resuspended with 50 μl of 2× Laemmli sample buffer. Samples were run on 4-12% NuPAGE Bis-Tris gels (Life Technologies) and analysed by immunoblotting, using anti-MBP HRP (E8038) (NEB), anti-eIF2α (ab26197) (AbCam) or anti-PPP1A (ab137512) (AbCam) antibodies.

The subject of assay [6] is α-2 adrenergic. To be noted: cited from earlier work.
For assay [7], the target named is T5, PP1c (Homo sapiens, UniProt P62136).
T5 construct: The cDNA encoding amino acids 7-330 of human PP1cα; Thio6/His6 tag (MGSDKIHHHHHH) (N); made in house; host or cells: E. coli BL21/pGro7 (PP1c); E. coli BL21 pLysS (eIF2α)
The assay is described as follows: Dephosphorylation of P-eIF2α by increasing amounts of PP1c alone. To be noted: compound 100 μM, 30° C., 16 h. Type of assay: biochemical. On the procedure:
as §2, §4

Assay [8] concerns the target T6, PP1 (1 μM) in the presence of R15A (Homo sapiens, UniProt O75807).
T6 construct: PPP1R15A amino acids 325-636 (R15A); His6 (C); made in house; host or cells: E. coli BL21 pLysS (R15A, eIF2α); E. coli BL21/pGro7 (PP1c)
The assay is described as follows: In vitro dephosphorylation of P-eIF2α using stoichiometric PP1c (1 μM) with R15A. Type of assay: biochemical. To be noted: 1 μM PP1c, 1 μM P-eIF2α, 30° C., 16 h; compounds 100 μM. On the procedure:
as §2, §4

In assay [9] the target is T3, R15A. The assay is described as follows: Light scattering to monitor aggregation of R15A. To be noted: 1 mM compound, 5 μM R15A, 10 min, 20° C. On the procedure: Samples were incubated for 10 min at RT. […] Therefore, light scattering was measured at 380 nm emission, 380 nm absorption to monitor the presence of aggregates. For each sample, 100 data points were collected over a period of 10 min, at 20° C., with constant stirring.

Assay [10] concerns the target T7, R15B^N/R15A^C (Homo sapiens, UniProt O75807+Q5SWA1).
T7 construct: PPP1R15B amino acids 340-698 (R15B), 340-635 (R15B^N), and 636-698 (R15B^C); PPP1R15A amino acids 325-636 (R15A), 325-512 (R15A^N), and 513-636 (R15A^C); R15A^C (PPP1R15A amino acids 513-636); His6 (C); made in house; host or cells: E. coli BL21 pLysS (chimera, eIF2α); E. coli BL21/pGro7 (PP1c)
The assay is described as follows: Dephosphorylation of P-eIF2α by chimeric holophosphatase PP1c-R15B^N/R15A^C. The following applies: PP1c 10 nM, compounds 100 μM, 30° C., 16 h. Format: biochemical.
Source text: as §1, §2, §3

The target in assay [11] is T3, R15A. As to the kind of experiment: Pull-down: binding of P-eIF2α to MBP-tagged R15A on amylose beads. The following applies: 200 μM compound, 200 nM MBP-R15A, 1 μM P-eIF2α, 10 min 4° C. On the procedure: as §5

Regarding `NC(N)=N/N=C/c1ccccc1Cl` [Sephin1], the “inhibition of R15A^N/R15B^C chimeric holophosphatase” value in assay [1] is on record as “inhibited”. For the same compound, in assay [2], the “inhibition of R15A-PP1c eIF2α holophosphatase” value is recorded as “selectively inhibited R15A-PP1c”. For the same compound, the “prevention of defects in protein-misfolding diseases” value in assay [3] was “safely prevents the motor, morphological and molecular defects”. Besides, the “binding to R15A” value in assay [4] (0.5 mM biotinylated compound on Streptavidin beads, 1 μM R15A) is on record as “directly bind R15A”. Moreover, the “nature of binding to R15A (elution with excess compound)” value in assay [4] (elution with 2 mM free compound) was “not covalent”. In addition, in assay [5], the “effect on binding of eIF2α to R15B” value is given as “not R15B”. For the same compound, in assay [6], the α-2 adrenergic activity entry is “devoid of both the α-2 adrenergic activity of Guanabenz”. For the same compound, the “inhibition of PP1c alone” value in [7] is given as “did not inhibit PP1c”. In addition, the “effect on dephosphorylation of eIF2α by PP1c with R15A” value in [8] is “neither the selective R15A inhibitors, Guanabenz and Sephin1, nor the selective inhibitor of R15B, Raphin1, had any measurable effects”. Besides, the “aggregation of R15A (light scattering at 380 nm)” value in [9] is on record as “No aggregation”. Further, in assay [10], the “inhibition of R15B^N/R15A^C chimeric holophosphatase” value was “largely insensitive”. The “effect on binding of eIF2α to R15A” value in assay [11] is “selectively prevented the binding of eIF2α to R15A”.
